Data as given in patent US9315489B2, “Compounds and compositions for inhibiting the activity of ABL1, ABL2 and BCR-ABL1” (Novartis AG, priority 2012, dated 2016).

Sequences of proteins named here, by UniProt entry; tags and fusion partners are left off. Residues count along the entry.
UniProt P00519, 64-515: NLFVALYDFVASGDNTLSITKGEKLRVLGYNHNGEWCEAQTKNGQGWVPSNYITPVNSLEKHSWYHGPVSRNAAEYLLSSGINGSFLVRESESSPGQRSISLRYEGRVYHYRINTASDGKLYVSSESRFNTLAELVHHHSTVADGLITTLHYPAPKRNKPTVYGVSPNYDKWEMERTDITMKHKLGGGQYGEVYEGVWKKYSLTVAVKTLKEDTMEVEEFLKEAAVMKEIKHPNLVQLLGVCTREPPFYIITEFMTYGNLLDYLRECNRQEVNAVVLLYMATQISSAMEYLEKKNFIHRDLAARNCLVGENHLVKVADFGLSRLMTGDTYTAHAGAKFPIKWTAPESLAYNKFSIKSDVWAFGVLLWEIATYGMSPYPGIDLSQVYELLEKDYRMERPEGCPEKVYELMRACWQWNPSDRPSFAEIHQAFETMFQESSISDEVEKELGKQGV

Target: ABL1 (64-515) (Homo sapiens (Human), UniProt P00519)
Assay: Caliper ABL1 (64-515) assay (microfluidic mobility shift)
Assay type: biochemical

IC50: 9.3 nM
Compound: CC(C)(O)c1ncc(C(=O)Nc2ccc(OC(F)(F)F)cc2)cc1-c1cncnc1 [Example 66, 6-(2-Hydroxypropan-2-yl)-5-(pyrimidin-5-yl)-N-(4-(trifluoromethoxy)phenyl)nicotinamide]
